This excerpt belongs to a sample that is enriched for hits.
GIV Gai3 FP: inhibitors of GIV GBA-motif binding to rat Galpha-i3; P08753; Galpha-i3/FITC-GIV peptide fluorescence polarization, 90 min; active compounds read low; scaled: aluminum fluoride 0%, vehicle 100%; percent of control (FP), % (test concentration not listed); 210,000 tested, 0.42% active; AID 1224905;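 active = replicate mean at 85% of control or lower, very high polarization wells dropped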;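 note: lower values mean more displacement of the GIV peptide from Galpha-i3; wells of about 15 µL received 100 nL stock; the first replicate is given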
GIV-Gai FP conf: GIV-Galpha-i3 inhibition, FP confirmation; shares compounds with GIV Gai3 FP; FITC-GIV peptide binding to Galphai3, fluorescence polarization; stronger effect = lower value; fluorescence polarization, mP at 100 µM; actives 38% (n = 580); AID 1259350;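 active = inhibition score of 15 or more, meaning 100 minus mean polarization as percent of control over three replicates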
GIV-Gai AS conf: GIV-Galpha-i3 inhibition, AlphaScreen confirmation. AlphaScreen Galphai3-GIV binding, purified proteins, 90 min; stronger effect = lower value. actives 39% (n = 580). AlphaScreen counts at 100 µM. shares compounds with GIV Gai3 FP;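 active = inhibition score at or above a set limit, where the score is 100 minus the three-replicate mean percent of control signal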
* marks the source's active call; other numbers are inactive results.

SMILES | GIV Gai3 FP | others
O=C(Cc1ccccc1Cl)NC1(O)C(=O)c2ccccc2C1=O | 70* | GIV-Gai FP conf=59;GIV-Gai AS conf=49874
O=C(Cc1ccccc1Cl)Nc1ccccn1 | 107
CN1CCN(NC(=O)Cc2ccccc2Cl)CC1 | 106
COc1ccc2c(C)[nH]c(=O)cc2c1 | 104
CCCc1[nH]c(=O)cc2cc(OC)c(OC)cc12 | 77* | GIV-Gai FP conf=58;GIV-Gai AS conf=23102*
CCCc1cc(=O)[nH]c(Nc2cc(Cl)ccc2OC)n1 | 99
CC(=O)c1ccc(NC(=O)CSc2nn3c(SCC(=O)Nc4ccc(C(C)=O)cc4)nnc3s2)cc1 | 106
CCOC(=O)C1CCN(C(=O)c2ccc(NC(=O)N3CCSc4nc(C)cc(C)c43)cc2)CC1 | 101
COc1ccc(/C=c2\sc3nc(-c4ccccc4)c(-c4ccccc4)n3c2=O)c(OC)c1OC | 88 | GIV-Gai FP conf=68;GIV-Gai AS conf=45907
COc1ccc(/C=c2\sc3nc(-c4ccccc4)c(-c4ccccc4)n3c2=O)cc1OC | 106
O=c1/c(=C/c2cccs2)sc2nc(-c3ccccc3)c(-c3ccccc3)n12 | 119
COc1cccc(CNC(=O)C2CCCN(c3nnc(-n4c(C)ccc4C)s3)C2)c1 (stereo not given) | 105
O=C(NCc1cccc(Br)c1)C1CCCN(c2nnc(N3CCCC3=O)s2)C1 (stereo not given) | 103
COc1cccc(CNC(=O)C2CCCN2c2nnc(N3CCCCC3=O)s2)c1 (stereo not given) | 87 | GIV-Gai FP conf=79;GIV-Gai AS conf=26734
O=C(Nc1ccc2c(c1)OCO2)c1nnc(C2CCN(C(=O)NC3CCCC3)CC2)s1 | 104
COc1ccc(C2CC(=O)Nc3c2c(C)nn3-c2nc(C)cc(C)n2)cc1 (stereo not given) | 108
CC1(C)CC(=O)C2=C(C1)NC1=C(C(=O)CC(C)(C)C1)C2c1ccccc1 | 103
CC1(C)CC(=O)C2=C(C1)Nc1ccccc1S2 | 78* | GIV-Gai FP conf=70;GIV-Gai AS conf=61627
CC1(C)CC(=O)C2=C(C1)Nc1ccccc1NC2c1ccccc1F (stereo not given) | 103
Cc1nn(-c2ccc(Cl)cc2)c(C)c1S(=O)(=O)N1CCN(c2ccccn2)CC1 | 114
COc1cc2c3nnc(-c4ccccc4)c-3cn(Cc3ccccc3)c2cc1OC | 111
CCOc1ccc2c(c1)c1nnc(-c3ccccc3)c-1cn2Cc1ccccc1 | 71* | GIV-Gai FP conf=64;GIV-Gai AS conf=45947
c1ccc(Cn2cc3c(-c4ccccc4)nnc-3c3ccccc32)cc1 | 110
CCC(=O)Nc1ccc2nn(-c3ccc(CC)cc3)nc2c1 | 101
CCOc1ccc(C2=NN3C(C2)c2cccc(OC)c2OC3c2ccc(OC)cc2)cc1 (stereo not given) | 115
Cc1ccc(NC(=O)c2nccnc2C(=O)O)c(C)c1 | 103
CCOC(=O)C1=C(C)N=c2s/c(=C\c3ccc(OC(C)=O)c(OC)c3)c(=O)n2C1c1cccc([N+](=O)[O-])c1 (stereo not given) | 105
COC(=O)c1c(NC(=O)c2ccc3c(c2)N(Cc2ccc(Cl)cc2)CCS3)sc(C)c1C | 108
Cc1ccc(C)n1-c1ccsc1C(=O)CC#N | 97
CC(=O)Nc1ccsc1C(=O)O | 105

Filtered by structure, the entries above containing two or more sulfur atoms (3)
SMILES | GIV Gai3 FP | others
CC(=O)c1ccc(NC(=O)CSc2nn3c(SCC(=O)Nc4ccc(C(C)=O)cc4)nnc3s2)cc1 | 106
O=c1/c(=C/c2cccs2)sc2nc(-c3ccccc3)c(-c3ccccc3)n12 | 119
COC(=O)c1c(NC(=O)c2ccc3c(c2)N(Cc2ccc(Cl)cc2)CCS3)sc(C)c1C | 108

Structures above that have a COOH group (2):
SMILES | GIV Gai3 FP | others
Cc1ccc(NC(=O)c2nccnc2C(=O)O)c(C)c1 | 103
CC(=O)Nc1ccsc1C(=O)O | 105

(cont.)
SMILES | GIV Gai3 FP | others
Cc1cc(C(=O)O)ccc1-n1c(C)ccc1C | 97
Cc1cc(C)n(-c2cc(C(=O)O)ccc2C)n1 | 100
Cc1ccc(C(=O)O)cc1-n1c(C)ccc1C | 67* | GIV-Gai FP conf=54*;GIV-Gai AS conf=3689*
Cc1ccc(C)n1-c1ccsc1C(=O)O | 65* | GIV-Gai FP conf=11*;GIV-Gai AS conf=1766*
CCc1c(C)[nH]c2ccc(C(=O)O)cc12 | 105
Cc1ccc(C(=O)O)cc1-n1c(C)ccc1-c1ccccc1 | 103
Cc1ccc(C)n1-c1ccc(C(=O)O)cc1O | 31* | GIV-Gai FP conf=50*;GIV-Gai AS conf=3903*
Cc1ccc(NC(=O)CSC2=C(C#N)C(c3ccc(C(C)C)cc3)CC(=O)N2)cc1C (stereo not given) | 102
CCCc1cc(C(=O)N2CCCC2c2ccc(Cl)cc2)no1 (stereo not given) | 104
COc1ccc2c(c1)C(C)=CC(C)(C)N2C(=O)Cn1cnc2c(cnn2-c2ccccc2)c1=O | 96
CCc1ccc(-c2cc(C)no2)cc1S(=O)(=O)N1CC(C)Sc2ccccc21 (stereo not given) | 101
CC(C)NC(=O)C1CCCN(C(=O)c2cc(-c3cccnc3)n[nH]2)C1 (stereo not given) | 101
N#C/C(=C/c1ccc(-c2ccc(S(N)(=O)=O)cc2)o1)C(=O)Nc1cc(Cl)ccc1Cl | 75* | GIV-Gai FP conf=80;GIV-Gai AS conf=30693
N#C/C(=C\c1ccc(-c2cc(Cl)ccc2Cl)o1)C(=O)Nc1ccccc1C(=O)O | 113
CCOC(=O)c1ccc(-c2ccc(/C=C(\C#N)C(=O)Nc3cccc(C)c3)o2)cc1 | 129
CCOC(=O)c1ccccc1NC(=O)/C(C#N)=C/c1ccc(-c2ccc(Cl)cc2)o1 | 76* | GIV-Gai FP conf=31*;GIV-Gai AS conf=11443*
